{"source": "patent US20220023289A1", "about": "“Application Of Pyrroloquinoline Quinone In Preparation Of Medicament Used For Preventing And Treating Acute Altitude Sickness And Acute Altitude Hypoxia Injury” (priority 2018, published 2022)", "key": {"[1]": {"test_system": "rats exposed to acute altitude hypoxia", "test": "Renal function in rats exposed to acute altitude hypoxia", "format": "in vivo, Wistar rat", "conditions": "female rats, normoxia, 0.11 g/kg"}, "[2]": {"test_system": "rats with acute altitude hypoxia injury", "test": "Oxidative stress indexes of rats with acute altitude hypoxia injury", "format": "in vivo, Wistar rat", "conditions": "male rats, 0.11 g/kg", "source_text": "Determination of malondialdehyde: […] Operate according to the instructions, and then measure the absorbance value of each tube, and afterwards calculate the content of malondialdehyde in the sample to be tested according to the formula. Determination of superoxide dismutase: […] The latter oxidizes hydroxylamine to form nitrite. It appears purplish red under the action of chromogenic agent. Measure its absorbance by a visible light spectrophotometer. When the measured sample contains superoxide dismutase, it has specific inhibitory effect on superoxide anion free radicals, make formed nitrite reduced. The absorbance value of the measuring tube is lower than that of the control tube during colorimetry. The superoxide dismutase activity in the tested sample can be calculated by formula calculation. […] Determination of total antioxidant capacity (T-AOC): […] The latter can form a stable complex with phenanthrophins and measure its antioxidant capacity by colorimetry. Operate according to the kit instructions, measure the absorbance of each tube at a wavelength of 520 nm, and then calculate the total antioxidant capacity in the sample to be tested according to the formula."}}, "data": [{"compound": "CC(=O)Nc1nnc(S(N)(=O)=O)s1", "note": "[Acetazolamide, reference compound]", "values": [{"measurement": "Serum urea nitrogen", "setting": "[1]", "value": "7.86 ± 0.49", "unit": "mmol/L"}, {"measurement": "Total antioxidants", "setting": "[2]", "value": "1.23 ± 1.93", "unit": "U/ml"}]}]}
